Data on eight molecules can be found in US9840507B2, “5,6-dihydro-imidazo[1,2-a]pyrazin-8-ylamine derivatives useful as inhibitors of beta-secretase (BACE)” (Janssen Pharmaceutica, NV, priority 2010, dated 2017).

Sequences of proteins named here, by UniProt entry; tags and fusion partners are left off. Residues count along the entry.
UniProt P56817, 46-501 limits assumed: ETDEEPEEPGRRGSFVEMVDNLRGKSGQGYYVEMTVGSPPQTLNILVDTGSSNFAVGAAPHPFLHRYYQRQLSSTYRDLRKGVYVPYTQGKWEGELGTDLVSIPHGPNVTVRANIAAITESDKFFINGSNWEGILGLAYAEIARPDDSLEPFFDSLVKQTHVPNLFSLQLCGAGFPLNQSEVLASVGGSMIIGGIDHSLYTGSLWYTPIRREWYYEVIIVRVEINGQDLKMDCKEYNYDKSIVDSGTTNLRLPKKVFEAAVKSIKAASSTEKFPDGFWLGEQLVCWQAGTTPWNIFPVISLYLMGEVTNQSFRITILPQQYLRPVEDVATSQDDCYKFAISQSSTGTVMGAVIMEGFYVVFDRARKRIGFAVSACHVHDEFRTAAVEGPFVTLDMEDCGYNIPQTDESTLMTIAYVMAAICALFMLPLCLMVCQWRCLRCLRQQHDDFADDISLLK

In assay [1] the test system is Aβ42 produced and secreted into the medium of human neuroblastoma SKNBE2 cells. The assay is described as follows: Cellular αlisa assay in SKNBE2 cells, Aβ42. The format is cell-based. Particulars: SKNBE2 cells expressing hAPP695, incubated for 18 hours. Here is the method:
(§1) In two αlisa assays the levels of Aβtotal and Aβ42 produced and secreted into the medium of human neuroblastoma SKNBE2 cells are quantified. The assay is based on the human neuroblastoma SKNBE2 expressing the wild type Amyloid Precursor Protein (hAPP695). The compounds are diluted and added to these cells, incubated for 18 hours and then measurements of Aβ42 and Aβtotal are taken. Aβtotal and Aβ42 are measured by sandwich αlisa. αlisa is a sandwich assay using biotinylated antibody AbN/25 attached to streptavidin coated beads and antibody Ab4G8 or cAb42/26 conjugated acceptor beads for the detection of Aβtotal and Aβ42 respectively. In the presence of Aβtotal or Aβ42, the beads come into close proximity. The excitation of the Donor beads provokes the release of singlet oxygen molecules that triggers a cascade of energy transfer in the Acceptor beads, resulting in light emission. Light emission is measured after 1 hour incubation (excitation at […] and emission at 615 nm).
(§2) A best-fit curve is fitted by a minimum sum of squares method to the plot of % Controlmin versus compound concentration.
(§3) LC=Median of the low control values
(§4) =Low control: cells preincubated without compound, without biotinylated Ab in the αlisa
(§5) HC=Median of the High control values
(§6) =High Control: cells preincubated without compound % Effect=100−[(sample−LC)/(HC−LC)*100] % Control=(sample/HC)*100% % Controlmin=(sample−LC)/(HC−LC)*100

The target of assay [2] is recombinant BACE1 protein (Homo sapiens, UniProt P56817). The assay is described as follows: Biochemical FRET based assay. The following applies: recombinant BACE1 1 μg/ml, 10 μm substrate, 120 minutes, room temperature, pH 5.0.
Assay [3] deals with Aβtotal produced and secreted into the medium of human neuroblastoma SKNBE2 cells. Description: Cellular αlisa assay in SKNBE2 cells, Aβtotal. Particulars: SKNBE2 cells expressing hAPP695, incubated for 18 hours. The format is cell-based. Here is the method:
as §1, §2, §3, §4, §5, §6

As for `COc1cnc(C(=O)Nc2cccc([C@]3(C)Cn4ccnc4C(N)=N3)c2)cn1`, the “Cellular αlisa assay in SKNBE2 cells Aβ42 pIC50” value in assay [1] was 7.09. Besides, in assay [2], the “Biochemical FRET based assay pIC50” value is 6.14. Also, the “Cellular αlisa assay in SKNBE2 cells Aβtotal pIC50” value in assay [3] came to 7.08.

Regarding `C[C@@]1(c2cccc(NC(=O)c3ccc(C#N)cn3)c2)Cn2ccnc2C(N)=N1`, the “Cellular αlisa assay in SKNBE2 cells Aβ42 pIC50” value in assay [1] is reported as 7.68. For the same molecule, the “Biochemical FRET based assay pIC50” value in assay [2] was 6.78. Further, the “Cellular αlisa assay in SKNBE2 cells Aβtotal pIC50” value in assay [3] is 7.67.

With `C[C@@]1(c2cccc(NC(=O)c3ccc(Cl)cn3)c2)Cn2ccnc2C(N)=N1`, the “Cellular αlisa assay in SKNBE2 cells Aβ42 pIC50” value in assay [1] amounted to 7.60. For the same molecule, the “Biochemical FRET based assay pIC50” value in assay [2] came out at 6.76. Moreover, in assay [3], the “Cellular αlisa assay in SKNBE2 cells Aβtotal pIC50” value was determined as 7.60.

For `C[C@@]1(c2cccc(NC(=O)c3ncc(Cl)cc3Cl)c2)Cn2ccnc2C(N)=N1`, in assay [1], the “Cellular αlisa assay in SKNBE2 cells Aβ42 pIC50” value is listed as 7.65. For the same molecule, the “Biochemical FRET based assay pIC50” value in assay [2] was 6.95. Besides, in assay [3], the “Cellular αlisa assay in SKNBE2 cells Aβtotal pIC50” value was 7.67.

As for `COc1cnc(C(=O)Nc2ccc(F)c([C@]3(C)Cn4c(C#N)cnc4C(N)=N3)c2)cn1`, the “Biochemical FRET based assay pIC50” value in assay [2] is 7.33.

For `COc1cnc(C(=O)Nc2ccc(F)c([C@]3(C)Cn4cc(C(F)F)nc4C(N)=N3)c2)cn1`, the “Cellular αlisa assay in SKNBE2 cells Aβ42 pIC50” value in assay [1] amounted to 7.39. Besides, in assay [2], the “Biochemical FRET based assay pIC50” value is given as 6.63. The “Cellular αlisa assay in SKNBE2 cells Aβtotal pIC50” value in assay [3] is on record as 7.36.

Turning to `C[C@@]1(c2cc(NC(=O)c3ccc(Cl)cn3)ccc2F)Cn2c(C#N)cnc2C(N)=N1`, in assay [2], the “Biochemical FRET based assay pIC50” value is on record as 7.29.

Consider `C[C@@]1(c2cc(NC(=O)c3ccc(F)cn3)ccc2F)Cn2cc(C(F)F)nc2C(N)=N1`, for which the “Cellular αlisa assay in SKNBE2 cells Aβ42 pIC50” value in assay [1] stood at 7.43. In assay [2], the “Biochemical FRET based assay pIC50” value worked out at 6.88. Besides, the “Cellular αlisa assay in SKNBE2 cells Aβtotal pIC50” value in assay [3] turned out to be 7.44.
